Source: patent publication US9409868B2, “Inhibitors of rho associated protein kinases (ROCK) and methods of use” (H. LEE MOFFITT CANCER CENTER AND RESEARCH INSTITUTE, INC., priority 2012, dated 2016)

The chains behind the UniProt entries cited, without tags or fusion partners. Where a name states a change or a piece, a line headed by the entry shows the natural chain unless it says otherwise.
UniProt Q13464: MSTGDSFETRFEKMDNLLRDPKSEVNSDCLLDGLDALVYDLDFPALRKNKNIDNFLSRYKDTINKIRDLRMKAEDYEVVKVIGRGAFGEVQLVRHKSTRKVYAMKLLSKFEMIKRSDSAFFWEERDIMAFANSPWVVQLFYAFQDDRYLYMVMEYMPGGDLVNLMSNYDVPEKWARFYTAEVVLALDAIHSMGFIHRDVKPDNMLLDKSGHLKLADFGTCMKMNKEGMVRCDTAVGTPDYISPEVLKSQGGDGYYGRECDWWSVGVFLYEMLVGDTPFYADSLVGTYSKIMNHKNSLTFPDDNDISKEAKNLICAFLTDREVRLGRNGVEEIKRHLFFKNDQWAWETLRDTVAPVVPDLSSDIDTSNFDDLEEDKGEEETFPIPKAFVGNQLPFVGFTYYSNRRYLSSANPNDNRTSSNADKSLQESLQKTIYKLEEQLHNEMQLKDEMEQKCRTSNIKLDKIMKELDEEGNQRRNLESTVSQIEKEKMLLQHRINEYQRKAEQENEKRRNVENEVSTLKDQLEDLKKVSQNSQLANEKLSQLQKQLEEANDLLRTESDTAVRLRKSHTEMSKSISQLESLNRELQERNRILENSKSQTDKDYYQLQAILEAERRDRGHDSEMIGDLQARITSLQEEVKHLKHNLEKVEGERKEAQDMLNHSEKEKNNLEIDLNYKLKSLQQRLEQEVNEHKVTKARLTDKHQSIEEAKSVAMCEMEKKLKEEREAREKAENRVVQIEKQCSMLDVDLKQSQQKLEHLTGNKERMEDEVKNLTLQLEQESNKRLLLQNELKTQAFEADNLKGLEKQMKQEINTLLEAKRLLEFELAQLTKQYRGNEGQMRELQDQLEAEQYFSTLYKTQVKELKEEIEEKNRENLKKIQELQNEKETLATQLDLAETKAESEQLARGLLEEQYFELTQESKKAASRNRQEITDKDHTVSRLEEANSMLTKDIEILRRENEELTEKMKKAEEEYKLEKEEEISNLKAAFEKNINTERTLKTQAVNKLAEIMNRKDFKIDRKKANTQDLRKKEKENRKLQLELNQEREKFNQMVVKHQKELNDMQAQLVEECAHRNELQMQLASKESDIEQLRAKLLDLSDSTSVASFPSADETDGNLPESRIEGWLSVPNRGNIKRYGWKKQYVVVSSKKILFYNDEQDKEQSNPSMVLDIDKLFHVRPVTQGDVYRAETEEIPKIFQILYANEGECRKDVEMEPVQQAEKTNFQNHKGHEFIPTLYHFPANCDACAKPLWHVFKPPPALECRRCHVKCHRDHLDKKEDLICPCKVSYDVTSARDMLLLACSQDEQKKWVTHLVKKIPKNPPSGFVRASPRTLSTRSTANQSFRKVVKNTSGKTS

Tests used:
[1] = target: ROCK1 (Homo sapiens (Human), UniProt Q13464); assay: Z-Lyte FRET kinase assay, ROCK1; format: biochemical; conditions: for inhibition at 400 µM: compound concentration at 400 μM
Excerpt: (§1) Kinase Assay. A robust FRET-based, enzyme-coupled assay format, Z-Lyte® Kinase Assay Ser/[…] Peptide Kit (Invitrogen, cat. PV3793), was employed in this study to monitor inhibition of ROCK1 (Invitrogen, cat. PV3691) and ROCK2 (Invitrogen, cat. PV3759) enzyme activities. […] The substrate contains both coumarin and fluorescein and only uncleaved […] substrate will undergo FRET. […] A known inhibitor, Y-27632 (Tocris Bioscience, cat. 1254), is used as a control compound.

[2] = target: ROCK2 (Homo sapiens (Human), UniProt O75116); assay: Z-Lyte FRET kinase assay, ROCK2; format: biochemical; conditions: for inhibition at 400 µM: compound concentration at 400 μM; for fold decrease of ROCK 2 inhibitory activity: relative to nicotinamide 3
Excerpt: as §1

Compound | LE (Ligand Efficiency), ROCK1 [1] | LE (Ligand Efficiency), ROCK2 [2] | also measured
O=C(Nc1ccncc1)c1ccccn1 [Compound 1, N-(Pyridin-4-yl)picolinamide] | – | – | inhibition at 400 µM [1]: 30 to 40%; inhibition at 400 µM [2]: 30 to 40%
O=C(Nc1ccncc1)c1ccncc1 [Compound 2, N-(pyridin-4-yl)isonicotinamide] | – | – | inhibition at 400 µM [1]: 30 to 40%; inhibition at 400 µM [2]: 30 to 40%
O=C(Nc1ccncc1)c1cccnc1 [Compound 3, N-(Pyridin-4-yl)nicotinamide] | 0.37 | 0.39 | –
O=C(Nc1ccncc1)c1cnccc1Cl [Compound 4, 4-Chloro-N-(pyridin-4-yl)nicotinamide] | 0.35 | 0.31 | fold decrease of ROCK 2 inhibitory activity [2]: 4 fold
O=C(Nc1ccncc1)c1cncc(Br)c1 [Compound 5, 5-Bromo-N-(pyridin-4-yl)nicotinamide] | 0.30 | 0.29 | fold decrease of ROCK 1 inhibitory activity ([1]; relative to nicotinamide 3): up to six fold; fold decrease of ROCK 2 inhibitory activity [2]: up to six fold
CN(CCc1ccccc1)C(=O)Nc1ccc2[nH]ncc2c1 [Compound 13, 3-(1H-Indazol-5-yl)-1-methyl-1-phenethylurea] | 0.27 | 0.32 | –
O=C(Nc1ccc2[nH]ncc2c1)N[C@H](CO)Cc1ccccc1 [Compound 14, (S)-1-(1-Hydroxy-3-phenylpropan-2-yl)-3-(1H-indazol-5-yl)urea] | 0.31 | 0.33 | –
COc1ccc(CCNC(=O)Nc2ccc3[nH]ncc3c2)cc1 [Compound 16, 1-(1H-Indazol-5-yl)-3-(4-methoxyphenethyl)urea] | 0.33 | 0.36 | –
O=C(NCCc1ccccc1)Nc1ccc2[nH]ncc2c1 [Compound 18, 1-(1H-Indazol-5-yl)-3-phenethylurea] | – | – | IC50 ([1]; triplicate experiments): 650 nM; IC50 ([2]; triplicate experiments): 670 nM
O=C(NCc1ccccc1)Nc1ccc(-c2ccncc2)cc1 [Compound 22, 1-Benzyl-3-(4-(pyridin-4-yl)phenyl)urea] | 0.35 | 0.39 | –
O=C(NCCc1ccccc1)Nc1ccc(-c2ccncc2)cc1 [Compound 25, 1-Phenethyl-3-(4-(pyridin-4-yl)phenyl)urea] | 0.32 | 0.27 | selectivity for ROCK 1 over ROCK 2 [1]: Eight-fold
O=C(Nc1ccc(-c2ccncc2)cc1)N[C@@H](CO)Cc1ccccc1 [Compound 26, (R)-1-(1-Hydroxy-3-phenylpropan-2-yl)-3-(4-(pyridin-4-yl)phenyl)urea] | 0.31 | 0.28 | selectivity for ROCK 1 over ROCK 2 [1]: four-fold; fold more inhibitory activity towards ROCK 1 ([1]; 26 (R) versus 27 (S)): 22 fold; fold more active towards ROCK 2 ([2]; 26 (R) versus 27 (S)): six fold
O=C(Nc1ccc(-c2ccncc2)cc1)N[C@H](CO)Cc1ccccc1 [Compound 27, (S)-1-(1-Hydroxy-3-phenylpropan-2-yl)-3-(4-(pyridin-4-yl)phenyl)urea] | 0.24 | 0.23 | –
